# Assay results taken from paper PMC10683761 (ACS Sensors, 2023).
# “Also recorded” adds a separate entry of the source.
# Key:
# [1] = test system: μMASS^1; type: cell-based, rat
# [2] = test system: μMASS^1; type: cell-based, rat; conditions: antagonist applied after agonist
compound,measurement,setting,value
CN1CC[C@]23c4c5ccc(O)c4O[C@H]2[C@@H](O)C=C[C@H]3[C@H]1C5 [morphine],activation of μMASS^1 compared to Met-enk,[1],26.4 ± 3.64%
C=CCN1CC[C@]23c4c5ccc(O)c4O[C@H]2C(=O)CC[C@@]3(O)[C@H]1C5 [naloxone],effect on μMASS^1 fluorescence signal,[2],abolished the fluorescence signal; also recorded: reversible
